One substance from patent publication US6906170B1, “Anti-inflammatory peptides derived from IL-2 and analogues thereof” (Yeda Research and Development Co. Ltd., priority 1998, dated 2005) can be followed below.

One test relates to human T cells. In words: Induction of T cell adhesion to ECM, FN, LN and CO-IV. It counts as cell-based. The conditions noted are these: soluble IL-2, 30 min at 37° C. As to the method: FIGS. 1A-1B show induction of T cell adhesion to fibronectin (FN), laminin (LN), collagen type IV (CO-IV) (FIG. 1A) and ECM (FIG. 1B) by IL-2. [^51Cr]-Labeled human T cells were seeded onto FN-, LN, CO-IV, and ECM-coated microtiter wells together with IL-2. After 30 min at 37° C., non-adherent T cells were removed, the adherent cells were lysed, and the percentage of T cells that had adhered was determined. One experiment representative of four.
T cell adhesion assays. Human T cells were purified from the peripheral blood of healthy donors, and T cell adhesion to immobilized protein substrates was examined as follows: Human leukocytes were isolated on a Ficoll gradient, washed, and incubated (2 h, 37° C., 7.5% CO2, humidified atmosphere) on petri dishes. The non-adherent cells were then collected and incubated (1 h, 37° C., 7.5% CO2, humidified atmosphere) on nylon wool columns (Novamed Ltd., Jerusalem, Israel). Unbound cells were eluted from the columns by extensive washings. The resulting cell population was always >92% T cells. […] The adherent cells were lysed, and the resulting supernatants were removed and analyzed in a γ-counter. For each experimental group, the results were expressed as the mean percentage ±SD of bound T cells from quadruplicate wells. […]

The subject of another test is β1 integrins. In words: T cell surface expression of β1 integrins. In kind it is cell-based, human. The conditions noted are these: not shown.

“IL-2: Recombinant human IL-2 (Chiron B. V.)”: in the test with human T cells, the “induction of T cell adhesion to ECM and ECM glycoproteins” value is “induced T cell adhesion to FN, LN, and CO-IV”. Also, the “T cell surface expression of β1 integrins” value in the test on β1 integrins is “did not alter the T cell surface expression of β1 integrins”.
